ChEMBL document CHEMBL1772943, “Potent, selective, and orally available benzoisothiazolone phosphomannose isomerase inhibitors as probes for congenital disorder of glycosylation Ia” (J Med Chem, 2011)

Target: T1, Phosphomannomutase 2 (Homo sapiens, UniProt O15305)
T1 sequence (O15305 whole entry): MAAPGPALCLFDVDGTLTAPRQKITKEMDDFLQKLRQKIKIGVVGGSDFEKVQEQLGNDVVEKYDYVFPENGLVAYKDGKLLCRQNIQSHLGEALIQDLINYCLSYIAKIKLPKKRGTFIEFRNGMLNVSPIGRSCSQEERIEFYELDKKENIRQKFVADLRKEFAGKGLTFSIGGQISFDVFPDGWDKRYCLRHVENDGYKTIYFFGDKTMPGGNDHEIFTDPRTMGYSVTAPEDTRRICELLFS
Assay: Inhibition of human purified PMM2

Question: For `O=c1c2ccccc2sn1-c1ccccc1`, which IC50 is on record?
Answer: > 20 µM
